Assay results taken from ChEMBL document CHEMBL3436045 (Sci Rep, 2013).

Sequences of proteins named here, by UniProt entry; tags and fusion partners are left off. A change or cut given only in a name is not applied to a line headed by its entry.
UniProt Q13936: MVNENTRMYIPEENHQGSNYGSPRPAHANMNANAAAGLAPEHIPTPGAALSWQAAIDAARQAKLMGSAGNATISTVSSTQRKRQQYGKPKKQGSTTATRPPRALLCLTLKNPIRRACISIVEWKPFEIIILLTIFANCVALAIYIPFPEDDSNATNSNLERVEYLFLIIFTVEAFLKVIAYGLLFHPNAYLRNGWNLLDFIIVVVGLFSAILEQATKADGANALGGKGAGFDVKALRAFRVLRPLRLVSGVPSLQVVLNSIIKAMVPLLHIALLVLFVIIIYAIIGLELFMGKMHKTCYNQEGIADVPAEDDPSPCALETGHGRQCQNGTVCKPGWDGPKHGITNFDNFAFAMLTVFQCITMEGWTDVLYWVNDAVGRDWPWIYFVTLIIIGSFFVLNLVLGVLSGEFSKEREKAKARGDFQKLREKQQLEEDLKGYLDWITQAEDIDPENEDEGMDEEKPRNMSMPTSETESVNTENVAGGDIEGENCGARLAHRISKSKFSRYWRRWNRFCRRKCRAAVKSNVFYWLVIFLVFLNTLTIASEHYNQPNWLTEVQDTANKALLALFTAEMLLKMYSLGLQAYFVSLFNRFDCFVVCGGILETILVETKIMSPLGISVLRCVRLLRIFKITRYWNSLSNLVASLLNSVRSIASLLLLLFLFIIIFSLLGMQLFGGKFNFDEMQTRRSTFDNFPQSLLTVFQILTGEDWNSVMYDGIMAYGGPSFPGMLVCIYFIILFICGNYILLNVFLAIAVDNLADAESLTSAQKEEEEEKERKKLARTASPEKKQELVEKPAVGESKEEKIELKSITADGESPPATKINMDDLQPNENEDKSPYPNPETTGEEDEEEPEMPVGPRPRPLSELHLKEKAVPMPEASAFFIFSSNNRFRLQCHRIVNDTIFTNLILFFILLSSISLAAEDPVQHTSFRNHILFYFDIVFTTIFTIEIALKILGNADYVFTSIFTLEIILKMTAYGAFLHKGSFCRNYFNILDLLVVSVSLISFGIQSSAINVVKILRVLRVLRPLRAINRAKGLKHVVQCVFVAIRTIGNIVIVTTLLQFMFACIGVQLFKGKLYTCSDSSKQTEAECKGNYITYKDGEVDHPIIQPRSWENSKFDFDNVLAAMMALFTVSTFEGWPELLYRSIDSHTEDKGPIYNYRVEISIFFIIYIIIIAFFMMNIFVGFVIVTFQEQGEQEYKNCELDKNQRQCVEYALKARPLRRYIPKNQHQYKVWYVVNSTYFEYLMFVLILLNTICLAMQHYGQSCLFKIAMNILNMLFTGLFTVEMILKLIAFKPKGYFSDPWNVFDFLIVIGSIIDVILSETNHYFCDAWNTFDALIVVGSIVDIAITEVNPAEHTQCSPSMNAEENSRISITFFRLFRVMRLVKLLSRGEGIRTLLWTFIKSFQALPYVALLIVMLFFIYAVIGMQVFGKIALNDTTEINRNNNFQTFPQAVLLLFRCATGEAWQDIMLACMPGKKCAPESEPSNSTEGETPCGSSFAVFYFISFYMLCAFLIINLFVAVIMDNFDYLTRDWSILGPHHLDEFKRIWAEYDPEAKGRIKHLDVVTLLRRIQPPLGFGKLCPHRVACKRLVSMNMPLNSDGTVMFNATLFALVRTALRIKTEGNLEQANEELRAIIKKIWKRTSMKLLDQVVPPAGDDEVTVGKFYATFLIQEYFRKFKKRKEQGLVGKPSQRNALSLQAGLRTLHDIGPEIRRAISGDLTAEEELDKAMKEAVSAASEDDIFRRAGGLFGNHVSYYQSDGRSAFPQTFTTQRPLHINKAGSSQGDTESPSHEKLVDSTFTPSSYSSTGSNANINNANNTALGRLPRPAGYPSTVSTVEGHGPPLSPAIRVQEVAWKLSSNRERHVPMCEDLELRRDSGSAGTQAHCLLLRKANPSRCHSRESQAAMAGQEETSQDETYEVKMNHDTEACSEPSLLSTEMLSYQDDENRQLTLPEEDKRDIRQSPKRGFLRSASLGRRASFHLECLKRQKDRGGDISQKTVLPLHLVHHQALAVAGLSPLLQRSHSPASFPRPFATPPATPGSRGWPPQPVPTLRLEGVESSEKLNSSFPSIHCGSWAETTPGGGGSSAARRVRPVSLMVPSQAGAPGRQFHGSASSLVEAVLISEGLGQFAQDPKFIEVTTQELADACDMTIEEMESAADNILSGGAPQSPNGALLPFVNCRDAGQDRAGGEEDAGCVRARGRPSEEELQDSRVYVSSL
UniProt Q01668: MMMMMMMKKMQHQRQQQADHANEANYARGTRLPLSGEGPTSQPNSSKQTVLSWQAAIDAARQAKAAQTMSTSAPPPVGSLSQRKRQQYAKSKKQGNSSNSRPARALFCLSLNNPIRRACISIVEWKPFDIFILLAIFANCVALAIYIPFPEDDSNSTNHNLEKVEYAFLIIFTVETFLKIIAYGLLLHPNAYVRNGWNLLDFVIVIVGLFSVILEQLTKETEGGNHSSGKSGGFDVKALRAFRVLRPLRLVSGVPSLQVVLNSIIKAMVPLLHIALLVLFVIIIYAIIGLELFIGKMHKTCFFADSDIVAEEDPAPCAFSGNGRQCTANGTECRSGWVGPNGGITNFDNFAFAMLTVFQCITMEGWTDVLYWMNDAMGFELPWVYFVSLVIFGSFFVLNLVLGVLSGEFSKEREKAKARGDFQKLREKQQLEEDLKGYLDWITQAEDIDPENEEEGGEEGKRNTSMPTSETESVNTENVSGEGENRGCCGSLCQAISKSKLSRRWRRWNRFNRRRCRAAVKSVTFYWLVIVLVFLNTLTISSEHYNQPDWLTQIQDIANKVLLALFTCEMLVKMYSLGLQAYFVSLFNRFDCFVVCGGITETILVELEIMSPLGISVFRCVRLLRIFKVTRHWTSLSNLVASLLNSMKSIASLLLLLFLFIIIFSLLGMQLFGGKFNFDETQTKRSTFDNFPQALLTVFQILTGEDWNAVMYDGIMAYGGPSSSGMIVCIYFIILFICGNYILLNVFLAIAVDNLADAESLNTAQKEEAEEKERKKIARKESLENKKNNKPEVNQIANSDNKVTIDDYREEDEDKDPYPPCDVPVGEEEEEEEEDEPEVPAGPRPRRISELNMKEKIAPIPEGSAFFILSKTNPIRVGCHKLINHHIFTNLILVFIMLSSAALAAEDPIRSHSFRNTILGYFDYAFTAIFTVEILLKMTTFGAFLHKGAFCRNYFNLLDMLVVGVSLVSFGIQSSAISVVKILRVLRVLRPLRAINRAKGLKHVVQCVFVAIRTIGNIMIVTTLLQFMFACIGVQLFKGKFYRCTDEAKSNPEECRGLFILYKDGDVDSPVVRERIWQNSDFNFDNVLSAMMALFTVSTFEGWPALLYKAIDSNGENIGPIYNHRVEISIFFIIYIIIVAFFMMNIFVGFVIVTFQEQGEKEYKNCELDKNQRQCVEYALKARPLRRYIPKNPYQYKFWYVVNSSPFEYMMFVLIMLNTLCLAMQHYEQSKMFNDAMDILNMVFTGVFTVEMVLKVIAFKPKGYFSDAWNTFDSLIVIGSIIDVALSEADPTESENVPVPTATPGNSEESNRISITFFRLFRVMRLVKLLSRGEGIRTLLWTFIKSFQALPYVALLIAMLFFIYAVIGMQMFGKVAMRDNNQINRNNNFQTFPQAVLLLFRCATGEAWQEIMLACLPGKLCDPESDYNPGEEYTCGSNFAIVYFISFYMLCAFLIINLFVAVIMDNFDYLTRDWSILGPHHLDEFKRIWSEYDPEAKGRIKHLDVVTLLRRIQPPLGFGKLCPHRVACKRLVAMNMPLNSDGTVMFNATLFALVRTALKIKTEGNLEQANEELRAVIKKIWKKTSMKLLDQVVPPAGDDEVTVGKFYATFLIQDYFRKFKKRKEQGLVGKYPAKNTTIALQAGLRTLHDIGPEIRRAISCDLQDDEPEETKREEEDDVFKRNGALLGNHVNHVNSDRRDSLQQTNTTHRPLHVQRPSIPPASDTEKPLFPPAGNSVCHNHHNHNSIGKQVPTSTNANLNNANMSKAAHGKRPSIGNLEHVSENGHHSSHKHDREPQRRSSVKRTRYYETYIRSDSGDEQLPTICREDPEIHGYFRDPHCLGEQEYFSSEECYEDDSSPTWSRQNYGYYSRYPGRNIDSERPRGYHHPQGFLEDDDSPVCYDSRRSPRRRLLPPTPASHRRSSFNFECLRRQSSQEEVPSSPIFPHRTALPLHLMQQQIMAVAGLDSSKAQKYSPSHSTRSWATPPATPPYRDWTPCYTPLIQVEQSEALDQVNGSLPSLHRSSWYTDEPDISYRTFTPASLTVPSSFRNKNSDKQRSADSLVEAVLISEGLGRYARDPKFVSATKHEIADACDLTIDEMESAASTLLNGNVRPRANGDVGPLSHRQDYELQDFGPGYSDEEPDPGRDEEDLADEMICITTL
UniProt O60840: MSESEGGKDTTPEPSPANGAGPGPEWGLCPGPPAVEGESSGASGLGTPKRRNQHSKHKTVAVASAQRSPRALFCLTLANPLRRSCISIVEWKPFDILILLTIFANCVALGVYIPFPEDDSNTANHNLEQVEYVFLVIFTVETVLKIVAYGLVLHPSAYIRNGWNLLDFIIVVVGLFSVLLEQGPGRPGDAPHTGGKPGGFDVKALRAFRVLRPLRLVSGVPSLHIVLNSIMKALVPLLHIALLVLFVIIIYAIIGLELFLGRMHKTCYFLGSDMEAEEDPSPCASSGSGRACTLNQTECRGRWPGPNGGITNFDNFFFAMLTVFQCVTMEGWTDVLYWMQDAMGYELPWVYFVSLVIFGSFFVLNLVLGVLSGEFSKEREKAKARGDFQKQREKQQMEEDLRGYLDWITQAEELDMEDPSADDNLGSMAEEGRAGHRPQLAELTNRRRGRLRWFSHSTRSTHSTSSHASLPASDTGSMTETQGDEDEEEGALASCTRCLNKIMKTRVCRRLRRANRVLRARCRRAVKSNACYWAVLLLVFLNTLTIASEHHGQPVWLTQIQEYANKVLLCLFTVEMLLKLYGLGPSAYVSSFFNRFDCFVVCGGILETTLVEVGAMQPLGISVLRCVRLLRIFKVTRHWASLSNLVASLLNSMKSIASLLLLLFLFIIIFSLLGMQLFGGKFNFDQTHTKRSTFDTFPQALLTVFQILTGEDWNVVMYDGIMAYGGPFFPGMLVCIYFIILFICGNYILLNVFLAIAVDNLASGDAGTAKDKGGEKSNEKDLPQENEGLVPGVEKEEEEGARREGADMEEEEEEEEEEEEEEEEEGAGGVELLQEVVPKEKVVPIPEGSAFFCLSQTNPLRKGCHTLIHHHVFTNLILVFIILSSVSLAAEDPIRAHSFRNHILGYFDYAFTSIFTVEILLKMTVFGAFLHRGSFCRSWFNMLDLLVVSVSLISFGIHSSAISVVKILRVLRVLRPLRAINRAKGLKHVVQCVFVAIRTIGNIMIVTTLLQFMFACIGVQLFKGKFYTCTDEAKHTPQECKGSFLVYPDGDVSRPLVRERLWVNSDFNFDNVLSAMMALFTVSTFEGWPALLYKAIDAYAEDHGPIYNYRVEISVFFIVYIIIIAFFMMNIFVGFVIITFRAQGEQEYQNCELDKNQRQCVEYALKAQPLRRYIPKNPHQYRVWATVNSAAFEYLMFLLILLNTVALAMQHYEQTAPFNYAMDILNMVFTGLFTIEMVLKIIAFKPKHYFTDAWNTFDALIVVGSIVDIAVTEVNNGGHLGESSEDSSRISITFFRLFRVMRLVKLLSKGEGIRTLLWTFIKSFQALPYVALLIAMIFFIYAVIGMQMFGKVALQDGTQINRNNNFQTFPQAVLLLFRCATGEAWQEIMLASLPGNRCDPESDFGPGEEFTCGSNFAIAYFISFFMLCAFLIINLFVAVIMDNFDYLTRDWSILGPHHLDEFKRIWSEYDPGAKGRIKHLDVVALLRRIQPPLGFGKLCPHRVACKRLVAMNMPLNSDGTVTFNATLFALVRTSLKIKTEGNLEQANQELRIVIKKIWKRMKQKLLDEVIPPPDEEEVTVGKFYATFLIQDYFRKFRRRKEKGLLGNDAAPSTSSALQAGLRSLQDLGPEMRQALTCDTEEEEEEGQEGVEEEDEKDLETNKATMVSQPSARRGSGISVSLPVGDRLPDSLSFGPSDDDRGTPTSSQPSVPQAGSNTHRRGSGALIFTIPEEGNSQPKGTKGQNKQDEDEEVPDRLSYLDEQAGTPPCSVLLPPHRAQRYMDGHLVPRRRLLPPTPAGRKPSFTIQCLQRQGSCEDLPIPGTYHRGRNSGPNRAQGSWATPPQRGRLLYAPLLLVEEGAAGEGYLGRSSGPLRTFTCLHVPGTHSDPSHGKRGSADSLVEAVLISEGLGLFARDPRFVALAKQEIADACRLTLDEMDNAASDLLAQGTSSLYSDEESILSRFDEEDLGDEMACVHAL

Biological target: Voltage-gated L-type calcium channel (Homo sapiens, UniProt Q13936+Q13698+Q01668+O60840)
Assay: Inhibition of Cav1.2 current measured using QPatch automatic path clamp system in CHO cells expressing Cav1.2, beta-2 and alpha-2/delta-1 subunits
Assay type: functional, cell-based, Cricetulus griseus
Parameters: ca sol conc 1.8 mM, temp Ambient

`Cc1nc(Nc2ncc(C(=O)Nc3c(C)cccc3Cl)s2)cc(N2CCN(CCO)CC2)n1.O` [DASATINIB] was tested. Which IC50 did it give?
Its IC50 is 81.1 µM.
